# Shown are actives, neighbours in structure and some others; about 1.9% of the full set was active somewhere.
# ERp5 inh = inhibitors of ERp5-driven insulin aggregation, primary screen, biochemical, turbidity, absorbance 650 nm, single point. Protein disulfide-isomerase A6 (Homo sapiens), Q15084. inhibition, % at 9.99 µM. actives 0.05% (n = 350,000). 90 min;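 active = mean replicate inhibition above about 25%, with every replicate also reaching it, limit read from the data, passing the limit was not always enough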
# PDI turbidity = inhibitors of human PDI, primary screen, biochemical, turbidity, single point, plate reader; Protein disulfide-isomerase (Homo sapiens), P07237; PDI insulin aggregation turbidity, A650, 90 min; inhibition, % at 10 µM; actives 0.052% (n = 350,000); AID 588391, 2011;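 active = mean inhibition across replicates of 30% or more, whatever share of single replicates reach that level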
# PglD inh = C. jejuni PglD acetyltransferase inhibitors, primary screen, biochemical, DTNB colorimetric, single point | UDP-N-acetylbacillosamine N-acetyltransferase PglD (Campylobacter jejuni) | purified PglD enzyme, DTNB colorimetric CoA detection | inhibition, % at 12.5 µM | actives 0.098% (n = 360,000); in the data active = inhibition above about 16%, passing the limit was not always enough
# FGF22 binding = binders of human FGF22 protein, primary screen, FGF22 synaptogenesis inhibitor project, biophysical, thermal shift, single point. recombinant FGF22 thermal shift, SYPRO orange fluorescence; percent of sucrose octasulfate shift, DMSO zero. Fibroblast growth factor 22 (Homo sapiens), Q9HCT0. activity (Tm shift, normalised), % at 9.99 µM. actives 1.5% (n = 340,000);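 active = mean Tm shift, scaled 0 neutral to 100 positive control, at about 1.3% or above, every replicate too, limit read from the data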
# Yeast UUG start = modulators of yeast start codon fidelity, primary screen, whole organism, S. cerevisiae, single point, plate reader; activity score, % at 18.7 µM; actives 0.13% (n = 350,000); S. cerevisiae UUG-firefly luciferase reporter, luminescence/redox ratio;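 active = replicate mean at a twofold rise or more, about +100% in these data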;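 also: firefly luciferase made from a UUG start codon reports start codon fidelity; reporter light over untreated wells divided by growth signal over untreated wells; some hits fall short of that in this replicate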
# ARNT TACC3 PPI = disruptors of ARNT/TACC3 protein interaction, primary screen, biochemical, AlphaScreen, single concentration; Transforming acidic coiled-coil-containing protein 3 (Homo sapiens), Q9Y6A5; AlphaScreen His-ARNT PAS-B/GST-TACC3 binding, luminescence; TACC3 fragment carries E629A point mutation; inhibition, % at 9.99 µM; actives 0.66% (n = 390,000);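 active = mean inhibition of replicates at least 50% and at least half of replicates each reaching 50%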
# Numbers stand for hits; i = inactive; nt = no result.
SMILES,ERp5 inh,PDI turbidity,PglD inh,FGF22 binding,Yeast UUG start,ARNT TACC3 PPI
O=C(C1CCCCC1)N1CC2(C1)[C@@H](c1ccccc1)[C@@H](CO)N2Cc1nccs1,i,nt,nt,nt,nt,nt
Cc1ccc(NC(=O)CSc2nc(N)cc(=O)[nH]2)cc1S(=O)(=O)N1CCOCC1,i,i,i,i,i,i
Cc1ccc(NC(=O)CSc2n[nH]c(N)n2)cc1S(=O)(=O)N1CCOCC1,i,i,i,43.9,i,i
CCCCn1c(SCC(=O)Nc2ccc(C)c(S(=O)(=O)N3CCOCC3)c2)nnc1C(CC)N(C)C (stereo not given),i,32.0,i,i,i,i
COCc1cn([C@@H]2C[C@@H]3O[C@H](CO)CC[C@@H]3O[C@@H]2CCc2ccc(-c3ccc(OC)cc3)cc2)nn1,i,nt,nt,nt,nt,nt
Cc1noc(C)c1NC(=O)N(C)C[C@@H]1Oc2ccc(NC(=O)Nc3cccc4ccccc34)cc2C(=O)N([C@@H](C)CO)C[C@H]1C,i,nt,i,i,i,i
CCN1[C@@H]2Cn3c(ccc(C4=CCCC4)c3=O)[C@H]1[C@@H](C(=O)N[C@H](C)c1ccccc1)[C@@H]2CO,i,nt,i,i,nt,i
COCCCC1CCN(C(=O)C2CCC(=O)N(CCCc3ccccc3)C2)CC1 (stereo not given),i,i,i,43.0,i,nt
O=C(O)CCN(Cc1ccccc1)S(=O)(=O)c1ccc(Cl)cc1F,i,i,nt,43.7,nt,i
COC(=O)CCN(Cc1ccccc1)S(=O)(=O)c1ccccc1Br,i,i,i,i,i,i
O=C(C[C@H]1C=C[C@@H](NC(=O)CC2CC2)[C@@H](CO)O1)NCc1ccccc1,i,nt,nt,nt,nt,nt
CC(=NNc1nc2ccccc2s1)c1ccncn1,i,i,nt,i,nt,69.7
C[C@@H]1CN([C@H](C)CO)S(=O)(=O)c2ccc(C3=CCCCC3)cc2O[C@H]1CN(C)C(=O)Nc1ccc2c(c1)OCO2,i,nt,i,i,nt,i
COCCNC(=O)C[C@H]1C[C@@H]2c3cc(NC(=O)c4cccnc4)ccc3O[C@@H]2[C@@H](CO)O1,i,nt,i,i,i,i
COC(=O)C1=C(C)N(Cc2ccc(C(F)(F)F)cc2)C(=NCc2ccccc2)NC1c1cccc(F)c1 (stereo not given),i,nt,nt,43.9,nt,nt
COC(=O)C1=C(C)N(Cc2cccc(C(F)(F)F)c2)C(=NCc2ccc(C(F)(F)F)cc2)NC1c1cccc(F)c1 (stereo not given),i,nt,nt,i,nt,nt
CN(CCOC(=O)c1cccc(F)c1)Cc1ccccc1,i,i,nt,43.5,nt,i
Cc1c(N=NC2=C(O)CCCC2=O)c(=O)n(-c2ccccc2)n1C,i,i,nt,i,nt,63.1
Cc1c(N=Nc2ccc(O)cc2)c(=O)n(-c2ccccc2)n1C,i,i,nt,i,nt,i
COC(=O)C(CC#Cc1ccc2c(c1)[C@]1(C(=O)N2)[C@H](c2ccc(OCCO)cc2)N2[C@H](c3ccccc3)[C@H](c3ccccc3)OC(=O)[C@H]2[C@@H]1C(=O)Nc1nc2ccccc2s1)C(=O)OC,i,nt,nt,i,nt,nt
Cc1cccn2c(=O)c(C=O)c(N3CCN(c4ccccc4)CC3)nc12,i,i,nt,43.1,nt,nt
O=C1C2C3C=CC(CC3)C2C(=O)N1/N=C/c1ccco1 (stereo not given),i,i,nt,44.0,nt,i
COc1ccc(S(=O)(=O)NCC(c2ccc(F)cc2)N2CCOCC2)cc1Br (stereo not given),i,30.5,i,i,i,i
COc1ccc(S(=O)(=O)NCCN2CCOCC2)cc1Br,i,i,i,i,i,i
O=C(Nc1ccc2c(c1)[C@@H]1C[C@@H](CC(=O)N3CCOCC3)O[C@H](CO)[C@@H]1O2)C1CCOCC1,i,nt,i,i,i,i
SMILES,ERp5 inh,PDI turbidity,PglD inh,FGF22 binding,Yeast UUG start,ARNT TACC3 PPI
COc1ccc(S(=O)(=O)NCCc2nnc3ccc(SCC(=O)Nc4cc(C)on4)nn23)cc1,i,i,nt,i,nt,i
Cc1cc(NC(=O)CSc2ccc3nnc(CCNS(=O)(=O)c4ccccc4)n3n2)no1,i,i,i,43.8,i,nt
N#Cc1c(Nc2ccc(F)cc2)sc(C(=O)c2ccccc2)c1N,i,i,nt,43.0,nt,nt
c1ccc(-c2ccccn2)nc1,i,i,i,i,i,i
OC(c1ccccn1)(c1ccccn1)c1ccccn1,nt,i,nt,nt,nt,75.4
COc1cccc(C2NC(=S)NC(C)=C2C(=O)c2ccccc2)c1OC (stereo not given),i,i,nt,43.2,nt,i
C=CCOc1ccc(C2NC(=S)NC(C)=C2C(=O)c2ccccc2)cc1OC (stereo not given),nt,i,nt,nt,nt,i
O=C(Nc1ccc(F)cc1)N1CC(=O)N2[C@H](CO)[C@@H](c3ccc(C#Cc4ccc(F)cc4)cc3)[C@@H]2C1,i,nt,nt,nt,nt,nt
O=C1CCCc2[nH]c(-c3ccccc3)nc21,i,i,nt,42.9,nt,nt
CCC(=O)N1CC2(C1)[C@H](c1ccccc1)[C@@H](CO)N2CC1CCCC1,i,nt,nt,nt,nt,nt
CC(=O)C1=C(O)C(=O)N(Cc2cccnc2)C1c1ccc(C(C)C)cc1 (stereo not given),i,i,i,43.2,i,i
CC(=O)C1=C(O)C(=O)N(Cc2cccnc2)C1c1ccccc1Cl (stereo not given),nt,i,i,nt,i,i
CCOc1ccc(C2C(C(=O)c3ccc(C)o3)=C(O)C(=O)N2Cc2cccnc2)cc1 (stereo not given),i,i,i,i,i,i
CCOC(=O)C1=C(O)C(=O)N(Cc2cccnc2)C1c1ccc(C)cc1 (stereo not given),i,i,nt,43.5,nt,i
C[C@H](O)C#Cc1ccc2c(c1)O[C@@H](CN(C)CC1CC1)[C@H](C)CN([C@H](C)CO)S2(=O)=O,nt,nt,nt,nt,i,nt
C[C@@H]1CN([C@@H](C)CO)S(=O)(=O)c2ccc(C3=CCCC3)cc2O[C@@H]1CN(C)C(=O)c1ccccc1,i,nt,i,i,i,i
O=C(CSc1nc(-c2ccccc2)c(-c2ccccc2)o1)N1CCOCC1,nt,i,i,nt,111.3,i
Nc1ccc(NC2C[C@@H](C(=O)O)NC2=O)cc1 (stereo not given in full),i,i,nt,43.4,nt,nt
C[C@@H]1CN([C@H](C)CO)C(=O)c2cccc(NS(=O)(=O)c3ccc(Cl)cc3)c2O[C@H]1CN(C)C(=O)Nc1ccc(C(F)(F)F)cc1,i,nt,i,i,i,i
CN(C)CCCNC(=O)c1ccc(Oc2ccccc2)cc1,i,i,nt,43.6,nt,nt
CN(C)C(=O)[C@H]1[C@H](CO)[C@H]2Cn3c(cccc3=O)[C@H]2N1C(=O)NC1CCCC1,i,nt,nt,nt,nt,nt
